Biological target: pepsin (EC 3.4.23.1; from porcine stomach mucosa) (Sus scrofa, UniProt P00791)
Experiment: Enzymatic release of T3 or T4 by pepsin in Gastric Simulator (GS) buffer
Conditions: Table 1; 37° C., 4 hours

Chains of the proteins cited; added tags and fusions are not shown. Residues count along the entry.
UniProt P00791, 60-385: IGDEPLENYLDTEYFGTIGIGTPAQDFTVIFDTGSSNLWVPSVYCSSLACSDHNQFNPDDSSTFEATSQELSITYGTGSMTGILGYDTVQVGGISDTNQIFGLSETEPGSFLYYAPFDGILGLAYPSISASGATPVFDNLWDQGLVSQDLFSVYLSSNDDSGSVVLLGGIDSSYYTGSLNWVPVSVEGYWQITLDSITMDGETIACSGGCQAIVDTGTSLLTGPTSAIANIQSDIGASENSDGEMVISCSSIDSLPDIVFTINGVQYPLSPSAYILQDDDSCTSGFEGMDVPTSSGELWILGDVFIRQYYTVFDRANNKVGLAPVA

Row | Compound | enzymatic release of T3, Pepsin
1 | CCCCCCCC(=O)N[C@@H](Cc1cc(I)c(Oc2ccc(OC(=O)CCCCCCC)c(I)c2)c(I)c1)C(=O)O [C8T3(C8), N-Octanoyl-L-triiodothyronine(O-octanoyl)] | 0.9
2 | mPEG-Amine-Triiodothyronine [mPEG-Amine-T3] | 0.0
3 | CCCCCCCCCCCCCCCC(=O)Oc1ccc(Oc2c(I)cc(CC(N)C(=O)O)cc2I)cc1I.O=C(O)C(F)(F)F (stereo not drawn) [T3C16, Trioodothyronine Hexadeconoate—TFA] | 1.0
